Source: PubChem BioAssay (Broad Institute)
Most compounds without a hit are left out; they make up all but 2.8% or so of the library.
esBAF inh: Bmi1 luciferase reporter increase in mESCs, primary screen, esBAF inhibitor project, mouse ES cells, Bmi1 luciferase knock-in, single point; AID 602393, 2012; actives 2% (n = 350,000); 24 h; 100% = twice the neutral-well signal; reporter increase, % at 12.5 µM; in the data active means activation above about 40%; inconclusive means no clear call, values can overlap the other calls;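 further: a rise in the Bmi1 reporter signal indicates esBAF inhibition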
PglD DTNB: C. jejuni PglD acetyltransferase inhibitors, primary screen, biochemical, DTNB colorimetric, single point; inhibition, % at 12.5 µM; purified PglD enzyme, DTNB colorimetric CoA detection; AID 602405, 2012; UDP-N-acetylbacillosamine N-acetyltransferase PglD (Campylobacter jejuni); actives 0.098% (n = 360,000); in the data active means inhibition above about 16%, passing the limit was not always enough; inconclusive means no clear call, values can overlap the other calls
Yeast UUG start: yeast start codon fidelity modulation. S. cerevisiae UUG-firefly luciferase reporter, luminescence/redox ratio. activity score, % at 18.7 µM. 0.13% of 350,000 active;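 active = replicate mean at a twofold rise or more, about +100% in these data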;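 also: firefly luciferase made from a UUG start codon reports start codon fidelity; reporter light over untreated wells divided by growth signal over untreated wells; some hits fall short of that in this replicate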
PGC1a acetyl inh: inhibitors of PGC1a acetylation signal, primary screen, cell-based, U2OS, AlphaScreen, inhibitor mode; AID 651687, 2012; inhibition, % at 15.6 µM; actives 0.17% (n = 350,000); AlphaScreen anti-acetyl-lysine; with virally co-expressed GCN5 acetyltransferase;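 active means every replicate shows inhibition of at least 40%; inconclusive means mean inhibition at least 40% but some replicate below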
E-selectin induc: E-selectin induction in HUVECs, primary screen, imaging, HUVEC, immunofluorescence imaging, single point. actives 0.37% (n = 260,000). P16581. normalized: neutral wells 0, TNF-alpha wells 100. activation, % at 7.58 µM;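 active means mean E-selectin-positive cell signal at least 10% of the positive control, reached in at least 60% of replicates, without over 20% cell loss; inconclusive means no rule given, readout overlaps actives, possibly toxicity-flagged; inactive means the rest, including those meeting only one limit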
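assay system = HUVEC, human umbilical vein endothelial cells | input = 3,000 HUVEC seeded per well | medium = EGM-2 growth medium on 0.1% gelatin-coated wells | dosing = one compound dose added by pin transfer | signal = immunofluorescence imaging | read-out basis = % PE-positive cells | control set = TNF-alpha, DMSO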
Statin myotox sup: suppressors of statin myotoxicity in C2C12 myotubes, primary screen, cell-based, single point, plate reader. C2C12 myotubes + simvastatin, ATP luminescence, 48 h; scaled: DMSO 0, geranylgeraniol control 100. rescue of ATP level, % at 7.49 µM. actives 0.78% (n = 330,000). AID 602340, 2012;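 active means mean ATP rescue above about 67%, or every replicate alone reaching that limit, limit read from the data, passing the limit was not always enough; inconclusive means no clear call, values can overlap the other calls; inactive means mean under the limit and some replicate under it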;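 further: myotubes were challenged with 10 µM simvastatin during compound exposure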
Of the large screens only hits and unclear results are named; the others gave an inactive call.

CC(C)c1cc(C(=O)Nc2cccc(Cl)c2)no1	none (no result: E-selectin induc)
CC(C)c1cc(C(=O)Nc2cc(Cl)ccc2O)no1	esBAF inh 54.7 (no result: E-selectin induc)
CC(C)c1cc(C(=O)Nc2cc(Br)ccc2O)no1	esBAF inh 78.0 (no result: E-selectin induc)
O=C(Nc1cc(Br)ccc1O)c1cc(-c2cccs2)on1	none (no result: PGC1a acetyl inh, E-selectin induc)
O=C(CN1CCN(c2ccc(O)cc2)CC1)Nc1ccccc1C(=O)NCCc1ccccc1	E-selectin induc 66.5
COc1cccc(N2CCN(CC(=O)Nc3ccccc3C(=O)NCCc3ccccc3)CC2)c1	none (no result: PGC1a acetyl inh, E-selectin induc)
Cc1ccc(C2Nc3ccccc3-c3nc4ccccc4n32)o1 (stereo not drawn)	esBAF inh 67.7 (no result: E-selectin induc)
Clc1ccc(-c2nnc(CCc3ccccc3)o2)c(Cl)c1	esBAF inh 59.8 (no result: E-selectin induc)
Oc1ccccc1-c1nnc(COc2ccc(Cl)cc2Cl)o1	none (no result: E-selectin induc)
CCC(C)C(=O)N1CCc2cc(-c3csc(N)n3)ccc21 (stereo not drawn)	esBAF inh 53.3 (no result: E-selectin induc)
CC(C)(C)C(=O)N1CCc2cc(-c3csc(N)n3)ccc21	none (no result: E-selectin induc)
CCOc1ccc(S(=O)(=O)N(C)c2ccc(OCC(=O)N3c4ccc(C)cc4C4CN(C)CCC43)cc2)cc1 (stereo not drawn)	PGC1a acetyl inh 75.1 (no result: esBAF inh, Statin myotox sup)
CC(Sc1ccccc1F)C(=O)Nc1ccc2c(c1)OCCO2 (stereo not drawn)	esBAF inh 99.6
COc1ccc(-c2nnc(SC(C)C(=O)Nc3ccc4c(c3)OCCO4)o2)cc1 (stereo not drawn)	esBAF inh 46.2 (no result: E-selectin induc)
Cc1noc(C)c1S(=O)(=O)N(C)C[C@@H]1Oc2ccc(NC(=O)Nc3ccc(C(F)(F)F)cc3)cc2CC(=O)N([C@H](C)CO)C[C@@H]1C	none
CO[C@H]1CN(C)C(=O)c2ccc(NC(=O)C3CC3)cc2OC[C@@H](C)N(C(=O)c2ccccn2)C[C@H]1C	none (no result: Yeast UUG start)
CCn1c(C(=O)NC2CCC(C)CC2)cc2sccc21 (stereo not drawn)	esBAF inh 51.7, PGC1a acetyl inh inconclusive (no result: E-selectin induc)
Cn1c(C(=O)N2CCCC(C(=O)N3CCN(C(=O)c4ccco4)CC3)C2)cc2sccc21 (stereo not drawn)	none
CN(C(=O)c1cc2sccc2n1C)C1CCCCC1	none (no result: E-selectin induc)
Cn1c(C(=O)NC2CCCCC2)cc2sccc21	esBAF inh 42.5 (no result: E-selectin induc)
Cn1c(C(=O)N2CCCC(C(=O)O)C2)cc2sccc21 (stereo not drawn)	Statin myotox sup 95.9 (no result: E-selectin induc)
C[C@@H]1CCCCO[C@@H](CN(C)C(=O)Nc2ccc(F)cc2)[C@@H](C)CN([C@@H](C)CO)C(=O)c2cc(NC(=O)NC3CCCCC3)ccc2O1	none (no result: esBAF inh, PglD DTNB, Yeast UUG start, PGC1a acetyl inh, Statin myotox sup)
CC(=O)N1[C@@H](CO)[C@@H]2c3ccccc3N(C(=O)c3ccccc3)C[C@@H]21	none
CCOC(=O)C1=Nc2ccccc2C1=[N+]=[N-]	PGC1a acetyl inh 44.9 (no result: esBAF inh, PglD DTNB, Yeast UUG start, E-selectin induc, Statin myotox sup)
Cc1ccccc1C1c2[nH]c3ccccc3c2C[C@H]2C(=O)N(C3CC3)CC(=O)N12 (stereo partly drawn)	E-selectin induc 54.8 (no result: PGC1a acetyl inh)
O=C(CCCc1c[nH]c2ccccc12)N1CCCCCC1	esBAF inh 60.4 (no result: E-selectin induc)
O=C(CCc1c[nH]c2ccccc12)N1CCCC1	none (no result: PGC1a acetyl inh, E-selectin induc)
CC(C)(Oc1ccc(Cl)cc1)C(=O)NCc1ccco1	Statin myotox sup 122.8 (no result: E-selectin induc)
CC(C)(Oc1ccc(Cl)cc1)C(=O)NCc1ccncc1	none (no result: E-selectin induc)
O=C(NC(=S)NC1CCCC1)c1ccccc1	esBAF inh 56.5 (no result: PGC1a acetyl inh, E-selectin induc)
O=C(NC1CCCCCCC1O)c1ccccc1 (stereo not drawn)	PGC1a acetyl inh 57.1 (no result: PglD DTNB, Yeast UUG start)
O=S(=O)(Nc1cc(Sc2ncn[nH]2)c(O)c2ccccc12)c1ccccc1	PGC1a acetyl inh 72.4 (no result: esBAF inh, PglD DTNB, Yeast UUG start, E-selectin induc, Statin myotox sup)
O=C(N/N=C/c1cccc(Cl)c1Cl)Nc1ccccc1	esBAF inh 49.9 (no result: E-selectin induc)
O=C(N/N=C/c1ccc(Cl)cc1Cl)Nc1ccccc1	none (no result: E-selectin induc, Statin myotox sup)
Cc1cccc(/C=N/NC(=O)c2ccc(Br)cc2)c1	esBAF inh 58.8 (no result: E-selectin induc)
O=C(N/N=C/c1cccc(F)c1)c1csc2c1CCCC2	esBAF inh 50.4 (no result: E-selectin induc)
O=C(N/N=C/c1ccccc1Cl)c1cccc(F)c1	esBAF inh 52.7 (no result: E-selectin induc)
O=C(N/N=C/c1c(Cl)cccc1Cl)c1cccc(F)c1	none (no result: esBAF inh, PglD DTNB, Yeast UUG start, E-selectin induc, Statin myotox sup)
O=C(N/N=C/c1cccc(F)c1)c1ccc(Cl)cc1	esBAF inh 68.8 (no result: PglD DTNB, Yeast UUG start, E-selectin induc)
CC(C)(C)c1ccc(C(=O)N/N=C/c2cccc(Cl)c2)cc1	esBAF inh 53.9
O=C(N/N=C/c1cccc(NC(=O)c2ccc(Cl)cc2)c1)c1ccc(O)cc1	esBAF inh inconclusive (no result: PglD DTNB, Yeast UUG start)
COc1ccccc1C(=O)Nc1ccc2c(c1)OC[C@@H](C)N(C(C)=O)C[C@H](C)[C@@H](OC)CN(C)C2=O	none (no result: Yeast UUG start)
Cc1cnn(-c2cc(Oc3ccccc3)ncn2)c1	esBAF inh 64.6 (no result: E-selectin induc)
c1ccc(Oc2cc(-n3cncn3)ncn2)cc1	none (no result: esBAF inh, PGC1a acetyl inh, E-selectin induc, Statin myotox sup)
Cc1cc(NC(=O)c2ccc(OCC3CCCO3)cc2)ccc1Br (stereo not drawn)	esBAF inh 70.6 (no result: E-selectin induc)
COCc1nc2oc3ccccc3c(=O)c2cc1C(=O)OC	esBAF inh 48.2
CCOC(=O)c1nnc(-c2ccc(C)cc2)nc1Sc1ccc(Cl)cc1	Statin myotox sup 109.2 (no result: E-selectin induc)
CCOC(=O)c1nnc(-c2ccc(C)cc2)nc1Sc1ccccc1Cl	none (no result: E-selectin induc)
N#Cc1cccnc1N1CCC(C(N)=O)CC1	E-selectin induc 69.5 (no result: esBAF inh, PglD DTNB, Yeast UUG start, Statin myotox sup)
C[C@@H]1CN([C@@H](C)CO)C(=O)CCCn2cc(nn2)CO[C@@H]1CN(C)C(=O)Nc1cccc(Oc2ccccn2)c1	none (no result: Yeast UUG start)
Cc1noc(C)c1NC(=O)N(C)C[C@@H]1OCCCC[C@H](C)Oc2ccc(NC(=O)C3CCCCC3)cc2C(=O)N([C@H](C)CO)C[C@H]1C	none (no result: Statin myotox sup)
C[C@@H]1CN([C@@H](C)CO)C(=O)c2cccc(NS(C)(=O)=O)c2O[C@@H]1CN(C)S(=O)(=O)c1ccccc1	none (no result: PGC1a acetyl inh, Statin myotox sup)
Cc1ccc(-c2nnc(-c3ccc4ccccc4c3)o2)cc1	esBAF inh 54.3 (no result: PglD DTNB, Yeast UUG start, PGC1a acetyl inh)
O=C(COc1cc(=O)n2c(n1)SCCC2)c1ccccc1	Statin myotox sup 114.2 (no result: E-selectin induc)
C[C@@H]1CN([C@@H](C)CO)C(=O)c2cc(-c3cccc(F)c3)cnc2O[C@@H]1CN(C)C(=O)C1CCC1	none
Cc1ccc(S(=O)(=O)c2c(COC(=O)c3ccccc3Cl)c(-c3ccccc3)nn2C)cc1	Statin myotox sup 116.2 (no result: E-selectin induc)
C[C@@H]1CCCCO[C@H](CN(C)C(=O)Nc2ccc(F)cc2)[C@H](C)CN([C@@H](C)CO)C(=O)c2cc(NC(=O)Cc3ccccc3)ccc2O1	Statin myotox sup 86.8
